# Screens (PubChem)
# Only some compounds are listed: those with a hit (about 2.3% of all), similar ones and a draw of the others.
# ARFGAP1 inhibitor: inhibitors of rat ARFGAP1. Q62848. 360,000 compounds, 0.26% hits. Arfgap1-stimulated ARF1 GTP hydrolysis, GDP FP detection. AID 651572. inhibition, % at 16.5 µM;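 active means inhibition above a per-plate limit, mean inhibition of low control wells plus 3 SD, cut at about 25% in these data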;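 further: 0% = DMSO wells with enzyme and 100% = wells lacking Arfgap1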
#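 Material: truncated rat Arfgap1 GAP domain; Incubation: compound-enzyme preincubation 20 min, reaction 120 min, detection 60 min, 25 °C; Read-out: percent inhibition of Arfgap1-stimulated GTP hydrolysis; Technique: FP, GDP Alexa 633 tracer displaced from anti-GDP antibody, 620/688 nm; Controls: No-Arfgap1 wells (100%) versus DMSO full-reaction wells (0%); Replication: single well per compound.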
# Yeast UUG start: alters start codon recognition fidelity in yeast; S. cerevisiae UUG-firefly luciferase reporter, luminescence/redox ratio; activity score, % at 18.7 µM; actives 0.13% (n = 350,000); AID 602363;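 active = replicate mean at a twofold rise or more, about +100% in these data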;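 also: firefly luciferase made from a UUG start codon reports start codon fidelity; reporter light over untreated wells divided by growth signal over untreated wells; some hits fall short of that in this replicate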
# MC4R antag cAMP: blocks human MC4R cAMP signaling. P32245. 360,000 compounds, 0.48% hits. inhibition, % at 6.5 µM. MC4R-expressing cells, MTII-stimulated cAMP, LANCE TR-FRET;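 active means inhibition above its plate's cutoff, the mean of tested wells on that plate plus 3 SD, cut at about 29% in these data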;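 further: 0% = Melanotan II alone and 100% = Melanotan II plus saturating MCL0020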
#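 Material: human MC4R-expressing U2OS cells. Probe or stimulus: Melanotan II challenge. Dosing: 6.5 µM single dose. Times: 30-min compound, 1-h challenge, 1-h detection, room temperature. Technique: TR-FRET with Eu-cAMP and labeled anti-cAMP, 671 nm. Replication: singlicate.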
# ASAP1 inh: blocks human ASAP1-stimulated Arf1 GTP hydrolysis; Q9ULH1; GDP FP detection; inhibition, % at 16.5 µM; 360,000 compounds, 0.19% hits; AID 624377; in the data active means inhibition above about 25%;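 further: 0% = vehicle with enzyme and substrate and 100% = no enzyme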
# MC4R barr agon: agonists of human melanocortin 4 receptor (MC4R) beta-arrestin. activation, % at 8.9 µM. P32245. 360,000 compounds, 0.98% hits. U2OS MC4R beta-arrestin complementation, luminescence; percent of melanotan II response, DMSO zero;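 active means activation above a per-plate cutoff, the mean activation of sample wells on that plate plus 3 SD, cut at about 8% in these data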
# NRP1-CendR mod: alters CendR peptide binding to human NRP-1. O14786. FAM-RPARPAR peptide binding to NRP-1, fluorescence polarization. inhibition, % at 25 µM. 360,000 compounds, 0.85% hits;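 active means inhibition or corrected inhibition above about 18%, plus a signal ratio from 0.5 to 1.5, limit read from the data, passing the limit was not always enough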
# ASAP1 inh confirm: ASAP1 inhibition confirmed; inhibition, % at 16.5 µM; ASAP1-stimulated Arf1 GTPase, GDP fluorescence polarization; 620 compounds, 37% hits; shares compounds with ASAP1 inh;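 active means mean inhibition over triplicates exceeds the hit threshold derived for the earlier primary screening run, cut at about 25% in these data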
# * = called active by the depositor; . = not tested or not shown.
ASAP1 inh,ARFGAP1 inhibitor,MC4R barr agon,NRP1-CendR mod,SMILES,Yeast UUG start,ASAP1 inh confirm,MC4R antag cAMP
29*,-2,6,0,CC1=NN(c2ccccc2)C(=O)C1N=Nc1cccc(O)c1 (stereo unspecified),-32,10,-2
27*,7,.,-2,COc1ccc(C2=Nc3ccccc3NC(=O)C2N(CCc2ccccc2)C(=O)c2cccs2)cc1 (stereo unspecified),-11,-1,.
25*,4,3,-5,CC(C)c1ccc(OCC(=O)Nc2ccc(S(=O)(=O)Nc3ccccn3)cc2)cc1,-12,-4,19
-8,17,3,4,CC(C)c1cccc(OCC(=O)Nc2ccc(S(=O)(=O)Nc3ccccn3)cc2)c1,3,.,7
.,.,.,.,COc1cccc(CN2[C@H](CO)[C@@H]3c4ccccc4N(C(=O)c4cccnc4)C[C@@H]32)c1,13,.,.
.,.,.,.,CC(C)NC(=O)N(C)C[C@@H]1Oc2ccc(NS(=O)(=O)c3ccc(F)cc3)cc2CC(=O)N([C@H](C)CO)C[C@H]1C,5,.,.
7,21,0,13,COc1ccc2cc(C(=O)Nc3ccc(O)cc3)sc(=O)c2c1OC,.,.,19
26*,-5,3,-17,COc1ccc2cc(C(=O)Nc3ccc(F)cc3)sc(=O)c2c1OC,0,22,15
56*,13,0,-8,COc1ccc2cc(C(=O)Nc3ccc(Cl)cc3)sc(=O)c2c1OC,.,56*,11
.,.,.,.,Cc1noc(C)c1S(=O)(=O)N(C)C[C@H]1OCCCC[C@@H](C)Oc2ccc(NC(=O)NC3CCCCC3)cc2C(=O)N([C@@H](C)CO)C[C@H]1C,6,.,.
.,.,.,.,C[C@H](CO)N1C[C@H](C)[C@@H](CN(C)S(=O)(=O)c2cn(C)cn2)Oc2ccc(NS(=O)(=O)c3cccs3)cc2CC1=O,0,.,.
26*,16,0,0,Nc1c(S(=O)(=O)c2cccs2)c2nc3ccccc3nc2n1Cc1ccccc1,-12,8,4
27*,15,-3,13,COc1ccc2oc(C(=O)OCC(=O)N3CCC(C)CC3)c(C)c2c1,8,15,-1
.,.,.,.,CCCN(C)C[C@H]1Oc2ncc(Br)cc2C(=O)N([C@H](C)CO)C[C@H]1C,-4,.,.
26*,9,0,13,CC1(C)C=C2C(=NN(c3ccccc3)C(N)=C2C#N)CO1,-19,8,15
26*,15,0,2,Cc1ccc(-c2cc(C(=O)N/N=C/c3c(C)nn(-c4ccccc4)c3C)[nH]n2)cc1,-9,7,-21
3,-4,0,-12,Cc1nn(-c2ccccc2)c(C)c1/C=N/NC(=O)c1cc(C(C)(C)C)[nH]n1,-5,.,2
26*,17,-3,10,Cc1ccc(-c2cc(C(=O)N/N=C/c3c(C)nn(-c4ccccc4)c3C)n[nH]2)s1,-13,34*,-24
34*,8,3,-8,COc1ccc(/C=N/NC(=O)c2cc3c(ccc4ccccc43)o2)c(OC)c1,2,16,-2
29*,4,-2,7,COc1ccc(C(=O)N/N=C/c2cn[nH]c2-c2ccc(OC)cc2OC)cc1,-20,19,-2

# Next part; the last 2 above are carried over.
ASAP1 inh,ARFGAP1 inhibitor,MC4R barr agon,NRP1-CendR mod,SMILES,Yeast UUG start,ASAP1 inh confirm,MC4R antag cAMP
34*,8,3,-8,COc1ccc(/C=N/NC(=O)c2cc3c(ccc4ccccc43)o2)c(OC)c1,2,16,-2
29*,4,-2,7,COc1ccc(C(=O)N/N=C/c2cn[nH]c2-c2ccc(OC)cc2OC)cc1,-20,19,-2
9,11,2,4,COc1ccc(OC)c(/C=N\NC(=O)c2cc3c(ccc4ccccc43)o2)c1,-2,.,21
.,.,.,.,CCCC(=O)Nc1ccc2c(c1)C(=O)N(C)C[C@H](OC)[C@H](C)CN(Cc1ccc(-c3ccccn3)cc1)[C@@H](C)CO2,-1,.,.
.,.,.,.,COCC(=O)Nc1ccc2c(c1)C(=O)N(C)C[C@H](OC)[C@H](C)CN(C(=O)c1cnccn1)[C@@H](C)CO2,3,.,.
.,.,.,.,COc1ccccc1CNC(=O)C[C@H]1CC[C@H]2[C@@H](COC[C@@H](O)CN2C(=O)Nc2ccc(C(F)(F)F)cc2)O1,6,.,.
31*,3,0,-2,CC(C)NC(=O)c1ccc2c3n(nc2c1)-c1ccc(Cl)cc1CO3,-14,7,17
26*,13,-2,2,COc1ccc(C(=O)CSc2nc(=O)n(Cc3cccnc3)c3c2CCC3)cc1,-16,2,16
-1,18,-3,1,CCOc1ccc(NC(=O)CSc2nc(=O)n(Cc3cccnc3)c3c2CCC3)cc1,-16,.,-1
30*,15,-2,4,CCCCN(Cc1ccco1)C(=O)Cn1ncc2c(=O)oc3ccc(C)cc3c21,-9,33*,8
-1,-8,3,4,Cc1ccc2oc(=O)c3cnn(CC(=O)N(CCC(C)C)Cc4ccco4)c3c2c1,4,.,5
.,.,.,.,CN(C)CCCNC(=O)C[C@H]1C=C[C@H](NS(=O)(=O)c2ccccc2)[C@H](CO)O1,-9,.,.

# One compound at a time, from the list above. Order of screens: ASAP1 inh	ARFGAP1 inhibitor	MC4R barr agon	NRP1-CendR mod	Yeast UUG start	ASAP1 inh confirm	MC4R antag cAMP
# COc1ccccc1CNC(=O)C[C@H]1CC[C@H]2[C@@H](COC[C@@H](O)CN2C(=O)Nc2ccc(C(F)(F)F)cc2)O1 in the list: .	.	.	.	6	.	.
# CCCC(=O)Nc1ccc2c(c1)C(=O)N(C)C[C@H](OC)[C@H](C)CN(Cc1ccc(-c3ccccn3)cc1)[C@@H](C)CO2 in the list: .	.	.	.	-1	.	.
# COc1ccc(C(=O)CSc2nc(=O)n(Cc3cccnc3)c3c2CCC3)cc1 in the list: 26*	13	-2	2	-16	2	16

# Further entries follow:
ASAP1 inh,ARFGAP1 inhibitor,MC4R barr agon,NRP1-CendR mod,SMILES,Yeast UUG start,ASAP1 inh confirm,MC4R antag cAMP
9,0,-3,8,N#Cc1cc(Cl)c(N2CCOCC2)cc1C#N,-13,.,-11
30*,4,-2,20,N#Cc1cc2ccc(N3CCOCC3)cc2cc1C#N,-2,6,-23
.,.,.,.,CC(C)NC(=O)N(C)C[C@H]1Oc2ncc(C#CCC3CCCC3)cc2C(=O)N([C@H](C)CO)C[C@@H]1C,-1,.,.
30*,10,-1,12,O=C1C(Nc2ccccc2)=C(N2CCCCC2)C(=O)c2ccccc21,.,17,-3
28*,15,-2,4,Cc1ccc(NC2=C(N3CCCCC3)C(=O)c3ccccc3C2=O)cc1,.,16,-3
16,13,-1,10,O=C1C(Nc2cccc(O)c2)=C(N2CCCCC2)C(=O)c2ccccc21,-14,.,-6
.,.,-2,-25,COc1ccccc1NC1=C(N2CCCCC2)C(=O)c2ccccc2C1=O,.,.,0
.,.,.,.,CN(C)c1ccc2c(c1)[C@@H]1C[C@H](CC(=O)NCc3ccccc3)O[C@@H](CO)[C@@H]1O2,-4,.,.
28*,5,5,-14,O=C(NNS(=O)(=O)c1ccc(Cl)cc1)c1cc(-c2ccccc2)nc2ccccc12,-12,15,-2
.,.,.,.,C[C@@H]1CN([C@H](C)CO)C(=O)c2cc(NS(=O)(=O)c3cn(C)cn3)ccc2O[C@@H]1CN(C)Cc1ccc2c(c1)OCO2,-6,.,.
26*,-15,0,-8,CCOc1cc(C2CC(=O)N3CN(C4CCCCC4)CSC3=C2C#N)ccc1O (stereo unspecified),-11,3,3
-4,-11,-1,-3,COc1ccc2ccccc2c1C1CC(=O)N2CN(C3CCCCC3)CSC2=C1C#N (stereo unspecified),-16,.,18
-3,-1,-1,5,COc1ccc2c(c1OC)C(=O)OC2CC(=O)c1ccc(O)cc1 (stereo unspecified),-3,.,-4
